Test results published in PMC7493962, “Structure-based inhibitors targeting the alpha-helical domain of the Spiroplasma melliferum histone-like HU protein” (Scientific Reports, 2020).

By UniProt entry, the sequences of proteins in these tests, tags left out. Where a name states a change or a piece, a line headed by the entry shows the natural chain unless it says otherwise.
UniProt P0ACF0: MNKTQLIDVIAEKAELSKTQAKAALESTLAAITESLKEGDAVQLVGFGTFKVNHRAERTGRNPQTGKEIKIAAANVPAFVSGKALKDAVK

Assays:
[1] = target: T1, HUEc (HUα-homodimer from E. coli) (Escherichia coli, UniProt P0ACF0)
T1 construct: made in house

[2] = Solubility (stated in words); type: physicochemical; details: water

Row | Compound | IC50 ([1]; EMSA with DS24a; average ± SD from three runs; read-out: IC50, inhibition of HUEc DNA-binding) [µM] | Solubility [2] | IC50 ([1]; read-out: IC50, inhibition of HUEc DNA-binding; EMSA with DS24a; average ± SD from three runs) [µM]
1 | 4,5'-[4,4'-(9H-fluorene-9,9-diyl)bis(4,1-phenylene)]-bis(oxy)-bis(oxomethylene)-bis[2-(m-tolylcarbamoyl)-benzoic acid] [BDF5] | 7.5 ± 0.9 | limited solubility | –
2 | O=C(Oc1ccc(C2(c3ccc(OC(=O)c4ccc(C(=O)O)c(C(=O)O)c4)cc3)c3ccccc3-c3ccccc32)cc1)c1ccc(C(=O)O)c(C(=O)O)c1 [BDF4, 4,4'-[4,4'-(9H-fluorene-9,9-diyl)-bis(4,1-phenylene)]-bis(oxy)-bis(oxomethylene)diphthalic acid] | – | – | 7.5 ± 1

Like-named read-outs stand apart in the source and are kept apart here.
